Patent US12419308B2, “Phenylpyrazole insecticide compounds and compositions” (priority 2023, dated 2025)

How the values were obtained:
[1] = Plasma concentration analysis in topically treated chickens
Description: To explore the therapeutic potential of the compounds of the present disclosure, live chickens with mite infestation (Dermanyssus gallinae) are treated topically with solutions of test compound, with Fipronil as a positive control. Test solutions are prepared by dissolving the test compound in a mixture of 2-butoxyethanol, ethanol, and water (7:2:1) to reach a final concentration of 0.25% (w/v).
The test solution is administered using a mechanical spray pump delivering 0.5 mL of solution per actuation. The test solution is sprayed over the entire surface of the animal's body from a distance of 10-20 centimeters, resulting in direct contact of the solution with the animal's skin. The dosage applied to each animal is 3 mL/kg, equivalent to 7.5 mg/kg (kg live weight). The dosage is achieved using six actuations of the spray per kg of body weight per day. The treatment is administered once daily for 5 days at 24 hours intervals. One animal is left untreated as a negative control.
Blood samples are taken from each animal before the first treatment (T=0), and at 24-hour intervals thereafter. Each egg produced after a treatment is collected for later analysis.
Plasma samples are derived from each blood sample using standard procedures immediately after blood collection. Plasma is stored frozen at −80° C. until the time of analysis. […]
Plasma samples from Day 3 and Day 5 are analyzed.

[2] = Egg concentration analysis from topically treated chickens; assay type: in vivo; details: Compound of Example 1 treatment; Chicken 2, egg from 5 days
Description: One animal is left untreated as a negative control.
A modified and optimized QuEChERS protocol was employed to extract the compounds from eggs. The shell is manually removed, and then each egg is transferred to a clean beaker and homogenized with an electric mixer for small volumes. 5 grams of homogenized egg is put into a 50 mL Falcon tube, and 5 mL of water is added and the samples are shaken for 10 minutes. Next, 10 mL of acetonitrile is added and the samples are shaken again for 10 minutes. Then the roQ salts (4.0 g MgSO4, 1.0 g NaCl, 1.0 SCTD and 0.5 g SCDS, Phenomenex P/N KS08909) are added to each sample, and the mixture is well shaken for 10 minutes. Samples are then centrifuged at 2500 g for 5 minutes at room temperature, and the supernatant is transferred to an HPLC vial for analysis. The same HPLC-MS method is used as described above.
One egg from two chickens is analyzed: one chicken treated with Fipronil and one chicken treated with the Compound of Example 1. The eggs are both from Day 5. The results are shown in the following tables expressed as relative LC-MS peak area: […]

In the case of `N#Cc1nn(-c2c(Cl)cc(C(F)(F)F)cc2Cl)c2nc(O)cc(C(F)(F)F)c12` [Example 1, 1-(2,6-dichloro-4-(trifluoromethyl)phenyl)-6-hydroxy-4-(trifluoromethyl)-1H-pyrazolo[3,4-b]pyridine-3-carbonitrile], the “Metabolites observed in plasma (LC-MS)” value ([1]; chicken plasma after topical treatment) is reported as “No metabolites”, the “Systemic absorption and plasma accumulation compared to Fipronil” value ([1]; chickens, topical treatment, day 3 and day 5 plasma) is reported as “substantially less systemic absorption and plasma accumulation” and the “Relative LC-MS peak area of analyte in egg” value [2] is reported as 3.0.
